We go through six compounds from ChEMBL document CHEMBL1154105, “Optimization of peptide-based inhibitors of prostate-specific antigen (PSA) as targeted imaging agents for prostate cancer” (Bioorg Med Chem, 2009).

Structures are written as SMILES.

As a reminder, the Ki is the equilibrium dissociation constant of an inhibitor or competing ligand from its target.

Experiment [1] has as its target T1, Prostate-specific antigen (Homo sapiens, UniProt P07288).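 Further: Fluorescence-based readout of substrate cleavage by prostate-specific antigen, used to gauge enzyme inhibition.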
T1 sequence (P07288 whole entry): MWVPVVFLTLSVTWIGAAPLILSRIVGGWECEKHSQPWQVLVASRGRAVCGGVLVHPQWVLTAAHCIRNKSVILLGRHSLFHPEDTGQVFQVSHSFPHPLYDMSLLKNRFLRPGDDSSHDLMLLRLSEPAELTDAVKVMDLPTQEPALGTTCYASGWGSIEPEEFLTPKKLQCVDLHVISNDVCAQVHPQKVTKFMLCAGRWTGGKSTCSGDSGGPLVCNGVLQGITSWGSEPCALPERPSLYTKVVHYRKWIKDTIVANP
The experiment in a line: biochemical. Format: tissue-based, Prostate gland.

The nature of experiment [2]: Selectivity ratio of Ki for chymotrypsin to Ki for prostate-specific antigen. The note with it: Prostate gland.
A short description of experiment [3]: Inhibition of chymotrypsin.

With `CC(C)C[C@@H](C=O)NC(=O)[C@H](Cc1ccc(O)cc1)NC(=O)[C@H](CCCCN)NC(=O)[C@H](CO)NC(=O)[C@H](CO)NC(=O)OCc1ccccc1`, the inhibition constant (Ki) in experiment [1] was found to be 13.1 µM. As to `CC(C)C[C@H](NC(=O)[C@H](CCC(N)=O)NC(=O)[C@H](CO)NC(=O)[C@H](CO)NC(=O)OCc1ccccc1)B(O)O`, in experiment [2], the Ratio Ki is 8. Further, affinity in experiment [3] was put at a Ki of 0.211 µM.

As for `CC(C)C[C@H](NC(=O)[C@H](CC(C)C)NC(=O)[C@H](CCCCN)N(C)C(=O)[C@H](CO)NC(=O)[C@H](CO)N(C)C(=O)OCc1ccccc1)B(O)O`, the inhibition constant (Ki) in experiment [1] was 5.6 µM.

With `CC(C)C[C@H](NC(=O)[C@H](CC(C)C)NC(=O)[C@H](CCCCN)NC(=O)[C@H](CO)N(C)C(=O)[C@H](CO)NC(=O)OCc1ccccc1)B(O)O`, the inhibition constant Ki in experiment [1] is 19.9 µM. The same measure, in the same setting: the result for `CC(C)C[C@H](NC(=O)[C@H](CC(C)C)NC(=O)[C@H](CCCCN)NC(=O)[C@H](CO)NC(=O)[C@H](CO)NC(=O)OCc1ccccc1)B(O)O` reads 65 µM.

`CC(C)C[C@H](NC(=O)[C@H](CC(C)C)NC(=O)[C@H](CCCCN)N(C)C(=O)[C@H](CO)NC(=O)[C@H](CO)NC(=O)OCc1ccccc1)B(O)O` came in with an inhibition constant Ki in experiment [1] of 2.5 µM.
